Source: patent publication US9340537B2, “Benzamide derivatives for inhibiting the activity of ABL1, ABL2 and BCR-ABL1” (NOVATIS AG, priority 2012, dated 2016)
pIC50: −log10 of the molar value.

Sequences of proteins named here, by UniProt entry; tags and fusion partners are left off. Residues count along the entry.
UniProt P00519, 64-515: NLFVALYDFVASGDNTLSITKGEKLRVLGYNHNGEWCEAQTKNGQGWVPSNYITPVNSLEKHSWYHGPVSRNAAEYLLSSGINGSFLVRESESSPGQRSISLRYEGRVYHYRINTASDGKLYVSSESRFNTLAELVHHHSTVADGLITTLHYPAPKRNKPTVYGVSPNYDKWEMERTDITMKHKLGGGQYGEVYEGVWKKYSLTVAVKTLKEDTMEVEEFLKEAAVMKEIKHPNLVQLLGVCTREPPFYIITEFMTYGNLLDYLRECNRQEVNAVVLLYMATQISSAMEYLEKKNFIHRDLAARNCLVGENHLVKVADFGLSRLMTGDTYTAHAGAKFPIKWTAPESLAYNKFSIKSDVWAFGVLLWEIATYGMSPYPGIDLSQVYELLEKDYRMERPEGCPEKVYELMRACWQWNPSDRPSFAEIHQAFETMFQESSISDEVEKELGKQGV

Legend:
ABL1 (64-515) = ABL1 (64-515) (Homo sapiens (Human), UniProt P00519); experiment: Caliper ABL1 (64-515) microfluidic mobility shift kinase assay; conditions: read-out: Caliper ABL1 (64-515) IC50
BCR-ABL1+KCL-22 cells = experiment: Acquired resistance in BCR-ABL1+KCL-22 cells in vitro; type: cell-based; conditions: single agent, cells treated every 3-4 days

Row | pIC50 (ABL1 (64-515)) | Structure (SMILES) | time until acquired resistance (BCR-ABL1+KCL-22 cells) [days]
1 | 8.39 | N[C@]1(C(F)(F)F)CCN(c2ncc(C(=O)Nc3ccc(OC(F)(F)F)cc3)cc2-c2ccn[nH]2)C1 [Example 32, (R)-6-(3-Amino-3-(trifluoromethyl)pyrrolidin-1-yl)-5-(1H-pyrazol-5-yl)-N-(4-(trifluoromethoxy)phenyl)nicotinamide] | –
2 | – | Cc1nc(Nc2ncc(C(=O)Nc3c(C)cccc3Cl)s2)cc(N2CCN(CCO)CC2)n1 [dasatinib] | 18 to 21
